Test results taken from PMC7994819, “Pharmacokinetics and metabolomics investigation of an orally modified formula of standardized Centella asiatica extract in healthy volunteers” (Scientific Reports, 2021).

What was measured:
[1] = Clinical pharmacokinetics in plasma (LC–MS/MS, non-compartmental analysis) after oral modified formula ECa 233 capsules; type: in vivo, human (healthy Thai volunteers); settings: for Cl/F / Vd/F / t1/2 / AUC / Cmax: mean ± SD; for Tmax: median [IQR]
Description: This was a single-center, with an open-label, two-sequence of dosages (250 and 500 mg), two-periods of study (single and multiple dose) conducted in fasting condition (Fig. 1). […] The 250 mg of ECa 233 with 240 mL of drinking water were administered orally. […] All blood samples were centrifuged at 4 °C, 3200 × g for 10 min. […] Feces were also collected from one of the volunteers for detecting the possible presence of any eliminated compounds. Feces samples were collected each time that a volunteer defecated on day 1-3, 4-6 and 7-9 during the study period. These samples were immediately fixed with methanol and prepared by our previously described method of protein precipitation. After a 3-week washout period, all participants continued period 2 of the study, where they received a 500-mg dose of ECa 233, and sample collection procedures remained consistent with period 1 (Fig. 2). Plasma, urine and fecal samples were then stored at - 80 °C until analysis. For multiple oral dosing, participants continued to take 250 mg or 500 mg of ECa 233 every morning for 7 consecutive days. Then they had another set of blood and urine samples collected similar to the single dose study. The primary outcome was determination of pharmacokinetic parameters, including the profiles of the metabolites, and the secondary outcome was consideration of the safety profiles of ECa 233 after period 2 (end of the study). Sample preparation was performed by protein precipitation with two internal standards (glycerrhizin and […]) to correct the quantitative analysis of parent compounds and of their metabolites. Briefly, 200 μL of methanol was added followed by vortex mixing with 50 μL of each sample for 10 min and then centrifuged at 12,000 × g, 4 °C, 10 min. Quantitative determination of the parent compounds and their active metabolites in plasma and urine were carried out by using liquid chromatography tandem mass spectrometry (LC-MS/MS): LCMS-8060 (Shimadzu Corp. Japan) according to a previously validated and published bioanalytical method. […] The MS/MS system was operated using an ESI source in negative mode with MRM. For m/z transition; […] Non-compartmental analysis was applied to determine pharmacokinetic parameters and performed by PK solutions software (version 2.0). […] The apparent clearance (Cl/F) after oral administration was calculated as Cl/F = Dose/AUC, where F is the absolute oral bioavailability. The apparent volume of distribution (Vd/F) was estimated using Vd/F = Dose/(AUC × kel). The Cmax and Tmax were determined directly from the observed concentration-time curve.

[2] = Urine and feces excretion after oral modified formula ECa 233 capsules (LC–MS/MS); type: in vivo, human (healthy Thai volunteers); settings: after oral dosing of 250 or 500 mg ECa 233
Description: This was a single-center, with an open-label, two-sequence of dosages (250 and 500 mg), two-periods of study (single and multiple dose) conducted in fasting condition (Fig. 1). […] All blood samples were centrifuged at 4 °C, 3200 × g for 10 min. […] Feces were also collected from one of the volunteers for detecting the possible presence of any eliminated compounds. Feces samples were collected each time that a volunteer defecated on day 1-3, 4-6 and 7-9 during the study period. These samples were immediately fixed with methanol and prepared by our previously described method of protein precipitation. […] Plasma, urine and fecal samples were then stored at - 80 °C until analysis. Sample preparation was performed by protein precipitation with two internal standards (glycerrhizin and […]) to correct the quantitative analysis of parent compounds and of their metabolites. Briefly, 200 μL of methanol was added followed by vortex mixing with 50 μL of each sample for 10 min and then centrifuged at 12,000 × g, 4 °C, 10 min. […] The MS/MS system was operated using an ESI source in negative mode with MRM.

[3] = multiple dose oral, Day 7 (T0-72 h), ECa 233 250 mg daily, n=12
[4] = multiple dose oral, Day 7 (T0-72 h), ECa 233 500 mg daily, n=11
[5] = plasma, multiple dose oral, Day 7 (T0-72 h), ECa 233 250 mg daily, n=12
[6] = plasma, multiple dose oral, Day 7 (T0-72 h), ECa 233 500 mg daily, n=11
[7] = plasma, single dose oral, Day 1 (T0-24 h), ECa 233 250 mg, n=12
[8] = plasma, single dose oral, Day 1 (T0-24 h), ECa 233 500 mg, n=11

In the case of Asiaticoside [ASS], the Cl/F [1, 3] is reported as 284.8 ± 225.3 mL/min/kg, the Vd/F [1, 3] is reported as 155.55 ± 489.17 L/kg and the t1/2 [1, 3] is reported as 10.37 ± 8.84 h. The Cl/F [1, 4] was 508 ± 258.3 mL/min/kg, the Vd/F [1, 4] was 458.14 ± 462.33 L/kg and the t1/2 [1, 4] was 9.35 ± 8.18 h. For the same substance, the AUC [1, 5] was 114.98 ± 54.12 ng·h/mL, the Cmax [1, 5] was 10.93 ± 4.60 ng/mL and the Tmax [1, 5] was 1 [0.125] h. The AUC [1, 6] was 106.82 ± 34.59 ng·h/mL, the Cmax [1, 6] was 12.77 ± 2.87 ng/mL and the Tmax [1, 6] was 1 [0.5] h. For the same substance, the “time after dosing at which Cmax was observed” value ([1]; plasma, oral modified formula ECa 233 capsules) was ≤ 1 h, the AUC [1, 7] was 25.20 ± 29.15 ng·h/mL and the Cmax [1, 7] was 5.18 ± 3.43 ng/mL. The Tmax [1, 7] was 1.25 [0.625] h, the AUC [1, 8] was 176.59 ± 177.06 ng·h/mL and the Cmax [1, 8] was 9.81 ± 3.53 ng/mL. For the same substance, the Tmax [1, 8] was 1 [3.5] h and the “time of highest cumulative contents in urine” value [2] was ≤ 8 h.
